Values quoted from earlier work, collected in patent US20160361270A1, “UNIFORM, HIGH BASIS WEIGHT NANOFIBER FABRICS FOR MEDICAL APPLICATIONS” (University of Washington, priority 2015, published 2016).

In the case of maraviroc, the pKa is given as 8.
